Data from patent publication US20190369122A1, “METABOLIC DISORDERS” (priority 2016, published 2019).

Tested on: primary hepatocytes
Assay: Insulin signaling in primary hepatocytes (immunoblot)
Type: cell-based, mouse
Conditions: inhibitor 20 μM, ImP 100 μM, 24 h
Experimental: Snap-frozen liver and harvested cells were lysed in buffer containing 50 mM Tris-HCl (pH 7.4), 150 mM NaCl, 1 mM EDTA, 1 mM Na3VO4, 20 mM NaF, 10 mM glycerophosphate, 1 mM PMSF, 10% glycerol, 1% Triton X-100 and protease inhibitor cocktail. For immunoprecipitation, the cell lysates were obtained in 0.3% CHAPS-containing lysis buffer, sonicated and centrifuged at 20,000 g for 15 min at 4° C., and the supernatant was incubated with 20 μl of anti-FLAG beads (Sigma) at 4° C. for 4 h under gentle agitation.
Primary hepatocytes were isolated from C57BL/6J mice by digesting liver with perfusion of collagenase type IV as described previously. After perfusion, 16×10^5 cells were plated on collagen-coated 60 mm dishes in Dulbecco's modified Eagle's medium (DMEM)/F12 supplemented with fetal bovine serum (FBS), penicillin/streptomycin and 100 nM dexamethasone. After 4 h, the medium was changed to DMEM/F12 containing penicillin/streptomycin.
For insulin stimulation, primary hepatocytes were cultured in DMEM/F12 with or without 100 μM imidazole propionate for 14 to 24 h and treated with 5 nM insulin for the indicated times. For amino acid deprivation, primary hepatocytes were cultured in DMEM/F12 for 24 h, rinsed once with Earle's Balanced Salt Solution (EBSS) and then incubated in EBSS for 1 h before incubation with 100 μM imidazole propionate for the indicated times.

O=c1[nH]nc(Sc2ncc([N+](=O)[O-])s2)n1-c1ccc2c(c1)OCCO2 [B178D3, reference compound]
restoration of imidazole propionate-induced IRS1 reduction: did not restore
